Reference: publication PMC4420714 (Peptides, 2015)
“Also recorded” adds a separate entry of the source. Like-named read-outs stand apart in the source and are kept apart here.

Protein sequences, listed by entry. Tags and fused reporters are not part of them. Residues count along the entry.
UniProt P32241, 31-457, species assumed: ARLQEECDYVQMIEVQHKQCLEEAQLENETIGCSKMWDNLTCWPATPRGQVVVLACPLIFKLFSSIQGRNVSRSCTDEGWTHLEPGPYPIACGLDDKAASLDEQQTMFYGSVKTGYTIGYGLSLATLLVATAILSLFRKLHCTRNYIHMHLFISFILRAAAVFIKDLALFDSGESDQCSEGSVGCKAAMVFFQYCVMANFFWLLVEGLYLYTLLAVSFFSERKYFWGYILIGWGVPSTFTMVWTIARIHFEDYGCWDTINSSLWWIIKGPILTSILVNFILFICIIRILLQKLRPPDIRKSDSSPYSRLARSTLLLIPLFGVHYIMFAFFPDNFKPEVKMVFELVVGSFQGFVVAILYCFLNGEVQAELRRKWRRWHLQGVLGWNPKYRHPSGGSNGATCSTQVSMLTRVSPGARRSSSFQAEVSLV

What was measured:
[1] = target: T1, VPAC1-R (Homo sapiens, UniProt P32241); assay: [3H]cAMP generation in VPAC1-R/PANC-1 cells; assay type: cell-based; conditions: VPAC1-R/PANC-1 cells; for EC50: read-out: [3H]cAMP VPAC1-R/PANC-1 EC50; for [3H]cAMP VPAC1-R/PANC-1 % max (agonist class): relative to PACAP38, up to 1 µM
[2] = target: T2, VPAC2-R (Homo sapiens, UniProt P41587); assay: [3H]cAMP generation in VPAC2-R/PANC-1 cells; assay type: cell-based; conditions: read-out: [3H]cAMP VPAC2-R/PANC-1 EC50; VPAC2-R/PANC-1 cells
T2 sequence (P41587 24-438): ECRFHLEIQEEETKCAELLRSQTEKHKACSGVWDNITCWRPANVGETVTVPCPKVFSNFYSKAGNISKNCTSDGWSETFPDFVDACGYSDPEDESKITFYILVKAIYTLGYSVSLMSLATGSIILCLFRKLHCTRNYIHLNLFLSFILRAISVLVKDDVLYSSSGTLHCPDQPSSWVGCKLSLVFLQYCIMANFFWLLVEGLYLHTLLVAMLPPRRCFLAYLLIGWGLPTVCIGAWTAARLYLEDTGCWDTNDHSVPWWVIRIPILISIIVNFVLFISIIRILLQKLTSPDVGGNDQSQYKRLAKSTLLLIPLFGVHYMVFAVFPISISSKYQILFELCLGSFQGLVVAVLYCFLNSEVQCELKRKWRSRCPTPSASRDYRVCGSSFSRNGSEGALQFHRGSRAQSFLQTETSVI

[3] = target: T1, VPAC1-R; assay: Binding of 125I-VIP to VPAC1-R/PANC-1 cells; conditions: ratio of binding IC50, analog vs native parent peptide
[4] = target: T3, PAC1-R (Homo sapiens, UniProt P41586); assay: [3H]cAMP generation in PAC1-R cells; assay type: cell-based; conditions: for EC50: read-out: [3H]cAMP PAC1-R EC50; for [3H]cAMP PAC1-R % max (agonist class): relative to maximal stimulation by PACAP38, up to 1 µM
T3 sequence (P41586 21-468): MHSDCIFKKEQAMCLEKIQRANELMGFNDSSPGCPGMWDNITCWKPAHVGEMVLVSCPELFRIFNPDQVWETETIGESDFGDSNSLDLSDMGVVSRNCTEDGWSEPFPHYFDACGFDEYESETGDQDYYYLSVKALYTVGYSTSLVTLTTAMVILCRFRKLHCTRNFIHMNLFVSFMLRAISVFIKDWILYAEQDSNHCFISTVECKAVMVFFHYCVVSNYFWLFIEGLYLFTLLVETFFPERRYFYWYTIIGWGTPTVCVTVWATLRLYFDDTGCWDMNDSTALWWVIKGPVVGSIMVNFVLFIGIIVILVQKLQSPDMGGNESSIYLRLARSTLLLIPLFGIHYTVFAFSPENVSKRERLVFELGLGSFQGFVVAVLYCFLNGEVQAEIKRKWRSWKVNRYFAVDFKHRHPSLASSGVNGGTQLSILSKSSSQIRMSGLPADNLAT

[5] = target: T1, VPAC1-R; assay: [3H]cAMP generation in T47D cells; assay type: cell-based; conditions: T47D cells; for EC50: read-out: [3H]cAMP T47D EC50; for [3H]cAMP T47D % max (agonist class): relative to PACAP38, up to 1 µM
[6] = target: T2, VPAC2-R; assay type: binding; conditions: read-out: IC50 VPAC2-R, Sup-T1; Sup-T1 cells, 75 pM 125I-Ro 25-1553, 37°C
[7] = target: T3, PAC1-R; assay: Binding of 125I-PACAP27 to PAC1-R stably transfected NIH 3T3 cells; conditions: for decrease in affinity for PAC1-R cells compared to native PACAP38 (or PACAP27): ratio of binding IC50, analog vs native parent peptide; for lower affinity for PAC1-R cells than VPAC2-R/PANC-1 cells: binding IC50 ratio, VPAC2-R preferring

Substance | EC50 [1] [nM] | EC50 [2] [nM] | decrease in affinity for VPAC1-R/PANC-1 cells compared to native PACAP38 (or PACAP27, VIP) [3] | higher potency for PAC1-R cells compared to VPAC1-R/PANC-1 cells ([4]; cAMP generation EC50 ratio) | higher potency for PAC1-R cells compared to VPAC2-R/PANC-1 cells ([4]; cAMP generation EC50 ratio) | EC50 ([4]; PAC1-R cells) [nM] | EC50 [5] [nM] | IC50 [6] [nM] | decrease in affinity for PAC1-R cells compared to native PACAP38 (or PACAP27) [7] | [3H]cAMP VPAC1-R/PANC-1 % max (agonist class) [1] | [3H]cAMP PAC1-R % max (agonist class) ([4]; PAC1-R cells) | [3H]cAMP T47D % max (agonist class) [5] | lower affinity for PAC1-R cells than VPAC2-R/PANC-1 cells [7] | higher potency for PAC1-R cells compared to VPAC1-R/PANC-1 cells [4] | higher potency for PAC1-R cells compared to VPAC2-R/PANC-1 cells [4] | EC50 [4] [nM] | IC50 ([7]; read-out: IC50 PAC1-R) [nM] | greater affinity than potency, PAC1-R cells ([4]; EC50 cAMP over binding IC50) | higher affinity (selectivity) for PAC1-R cells over VPAC1-R/PANC-1 cells ([7]; IC50 VPAC1-R/PANC-1 divided by IC50 PAC1-R, binding)
[Aib^16,28,Ala^17,Lys^34,D-Lys^38]PACAP38 [Peptide P34] | 1.58 ± 0.08 | 2.63 ± 0.15 | 3–20 fold | 6–15 fold | 7-to-15 fold | 0.19 ± 0.01 | 30.2 ± 1.9 | 7.76 ± 0.34 | 10–30 fold |  |  |  |  |  |  |  |  |  | 
[Pip^3,Ala^15,17,Aib^16,28,Lys^34,D-Lys^38]PACAP38 [Peptide P38] | > 1000 | > 1000 | > 1,000 fold |  |  | > 1000 | > 1000 | > 1000 | > 1,000 fold | no agonist activity; also recorded: No Act | no agonist activity; also recorded: No Act | No Act | 2–4 fold |  |  |  |  |  | 
[Iaa^1,D-Ala^2,Ala^22]PACAP38 [Peptide P51] | 20.4 ± 1.5 | 323 ± 20 | 30-to-100 fold | 2-to-5 fold | 12–140 fold | 9.12 ± 0.67 | 7.1 ± 0.47 | 162 ± 10 | 100–300 fold |  |  |  | 2–9 fold |  |  |  |  |  | 
[Pip^3,Aib^16,28,Ala^17,20,Lys^34,D-Lys^38]PACAP38 [Peptide P41] | > 1000 | > 1000 | > 1,000 fold |  |  | > 1000 | > 1000 | > 1000 |  | no agonist activity; also recorded: No Act | no agonist activity; also recorded: No Act | No Act |  |  |  |  |  |  | 
[Aib^2]PACAP38 [Peptide P15] |  | 11.7 ± 0.7 | 2–10 fold |  |  |  | 16.6 ± 0.9 | 3.16 ± 0.15 |  |  |  |  |  | 2-to-5 fold | 12–140 fold | 0.46 ± 0.02 | 4.68 ± 0.29 |  | 
[Iac^1]PACAP38 [Peptide P44] |  |  | 2–10 fold |  |  |  |  |  | 5–10 fold | Ag (1 µM, 85) |  |  |  |  |  |  |  | 1.2- to 64 fold | minimal to no selectivity
